Test results reported in US9512125B2, “Substituted pyrazolo[3.4-D] pyrimidines as anti-inflammatory agents” (THE REGENTS OF THE UNIVERSITY OF CALIFORNIA, priority 2004, dated 2016).

Test system: HUVEC with or without PBMC (3C, 4H, SAG and LPS systems)
Assay: BioMAP inflammation model systems (3C, 4H, SAG, LPS), cell-based ELISA profiling

Cc1ccc(-c2nn(C(C)(C)C)c3ncnc(N)c23)cc1 [Compound 13, PP1, reference compound]
Activity: active
